Sequences of proteins named here, by UniProt entry; tags and fusion partners are left off.
UniProt Q01827, whole entry: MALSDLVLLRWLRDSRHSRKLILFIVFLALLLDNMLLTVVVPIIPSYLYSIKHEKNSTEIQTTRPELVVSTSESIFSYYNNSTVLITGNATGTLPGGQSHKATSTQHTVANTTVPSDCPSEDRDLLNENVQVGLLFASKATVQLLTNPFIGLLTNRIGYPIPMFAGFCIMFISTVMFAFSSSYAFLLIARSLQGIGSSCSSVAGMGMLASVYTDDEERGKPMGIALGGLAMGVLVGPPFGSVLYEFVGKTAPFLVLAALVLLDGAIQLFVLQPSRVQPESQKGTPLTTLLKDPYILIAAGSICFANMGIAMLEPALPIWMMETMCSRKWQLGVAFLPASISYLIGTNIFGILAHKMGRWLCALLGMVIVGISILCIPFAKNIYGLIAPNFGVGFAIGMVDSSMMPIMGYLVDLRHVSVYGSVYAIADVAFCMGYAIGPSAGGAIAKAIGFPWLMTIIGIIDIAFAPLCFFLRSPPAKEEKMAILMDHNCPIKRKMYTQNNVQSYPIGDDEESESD

According to ChEMBL document CHEMBL2380262, “Pyrrolidine analogs of GZ-793A: synthesis and evaluation as inhibitors of the vesicular monoamine transporter-2 (VMAT2)” (Bioorg Med Chem Lett, 2013):

What was measured:
[1] = molecular target: T1, Synaptic vesicular amine transporter (Rattus norvegicus, UniProt Q01827); test: Inhibition of VMAT2-mediated [3H]DA uptake in rat striatal synaptic vesicles by liquid scintillation spectroscopic analysis
[2] = molecular target: T1, Synaptic vesicular amine transporter; test: Displacement of [3H]DTBZ from VMAT2 in Sprague-Dawley rat synaptic vesicle membranes after 30 mins by scintillation counting analysis; type: cell membranes, Membrane

OC[C@H](O)CN1[C@H](CCc2cc(F)cc(F)c2)CC[C@@H]1CCc1cc(F)cc(F)c1
Ki [1]: 200 nM | Ki [2]: 4060 nM
